This series can be described thus: Lipophilicity by TLC retention factor Rf on silica. It counts as physicochemical. Particulars: ratio of MnP path to solvent path on silica plate, 1:1:8 KNO3(sat):H2O:acetonitrile. From the text: Fluorination enhances the lipophilicity of MnPs as described with TLC retention factor, Rf (compound path/solvent path). Rf was obtained on silica gel plates using acetonitrile:KNO3(sat):water=8:1:1 as previously described (Tovmasyan A, Carballal S, Ghazaryan R, Melikyan L, Weitner T, Maia C G, Reboucas J S, Radi R, Spasojevic I, Benov L, and Batinic-Haberle I. Rational Design of Superoxide Dismutase (SOD) Mimics: The Evaluation of the Therapeutic Potential of New Cationic Mn Porphyrins with Linear and Cyclic Substituents. Inorg Chem 53: 11467-83, 2014).
In some embodiments, the fluoro-substituted porphyrins of the present invention may have enhanced lipophilicity (e.g., compared to non-fluoro-substituted porphyrins). Lipophilicity can be measured via thin layer chromatography. The relative lipophilicity of a group of compounds can be determined in a given solvent system. […] The fluoro-substituted porphyrins of the present invention suitably have a lipophilicity of greater than zero in a solvent system of acetonitrile:water:KNO3 (saturated aqueous) (8:1:1). Alternatively, the lipophilicity may be quantified by the standard octanol/water partition coefficient (log P). In some embodiments, the lipophilic fluoro-substituted porphyrins may have a greater bioavailability than their hydrophilic analogs. In addition, the lipophilic fluoro-substituted porphyrins may have enhanced intracellular accumulation and/or intracellular uptake and/or potency in vivo as compared to hydrophilic analogs. Further, in other embodiments, the lipophilic fluoro-substituted porphyrins may selectively target different cellular compartments, such as the mitochrondria or the nucleus. Alternatively, other related cell/mitochrondia viability assays (e.g. MTT assay) may be used.
With `CC[n+]1ccccc1-c1c2nc(c(-c3cccc[n+]3CC)c3ccc([n-]3)c(-c3cccc[n+]3CC)c3nc(c(-c4cccc[n+]4CC)c4ccc1[n-]4)C=C3)C=C2.[Mn+3]` [Mn1, MnTE-2-PyP^5+, reference compound], the f entry was “.06”.

Regarding `FCC[n+]1ccccc1C1=C2C=CC3=[N+]2[Mn]24[n]5c1ccc5C(c1cccc[n+]1CCF)=C1C=CC(=[N+]12)C(c1cccc[n+]1CCF)=c1ccc([n]14)=C3c1cccc[n+]1CCF` [Mn3, Mn(III) 5,10,15,20-tetra(2-fluoroethylpyridinium-2-yl)porphinato pentachloride], the f entry is “.11”.

For the compound `FC(F)(F)CCCC[n+]1ccccc1C1=C2C=CC3=[N+]2[Mn]24[n]5c1ccc5C(c1cccc[n+]1CCCCC(F)(F)F)=C1C=CC(=[N+]12)C(c1cccc[n+]1CCCCC(F)(F)F)=c1ccc([n]14)=C3c1cccc[n+]1CCCCC(F)(F)F` [Mn4, 5,10,15,20-tetra(Mn(III) 5′,5′,5′-trifluoropentylpyridinium-2-yl)porphinato pentachloride], the f entry is on record as “.43”.

As to “Mn(III) ortho N-butoxyethylpyridylporphyrin [Mn2, reference compound]”, the f entry was “.43”.

For MnTnPen-2-PyP^5+ [reference compound], the f entry was “.32”.

(Values after patent US11344574B2, “Fluoro substituted porphyrin compounds, pharmaceutical compositions comprising the same, and methods of preparing and using the same” (Duke University, priority 2017, dated 2022).)
